Results reported in patent US20220389115A1 (SURFACE ONCOLOGY, published 2022).

Molecular target: T1, CD39 (ectonucleoside triphosphate diphosphohydrolase 1, ENTPD1) (human, UniProt P49961 1-510)
T1 construct: whole, on cells; The 'target' of the target occupancy measurement on peripheral blood monocytes of patients dosed with clone 22; also called E-NTPDase1; NTPDase-1
T1 sequence (looked up): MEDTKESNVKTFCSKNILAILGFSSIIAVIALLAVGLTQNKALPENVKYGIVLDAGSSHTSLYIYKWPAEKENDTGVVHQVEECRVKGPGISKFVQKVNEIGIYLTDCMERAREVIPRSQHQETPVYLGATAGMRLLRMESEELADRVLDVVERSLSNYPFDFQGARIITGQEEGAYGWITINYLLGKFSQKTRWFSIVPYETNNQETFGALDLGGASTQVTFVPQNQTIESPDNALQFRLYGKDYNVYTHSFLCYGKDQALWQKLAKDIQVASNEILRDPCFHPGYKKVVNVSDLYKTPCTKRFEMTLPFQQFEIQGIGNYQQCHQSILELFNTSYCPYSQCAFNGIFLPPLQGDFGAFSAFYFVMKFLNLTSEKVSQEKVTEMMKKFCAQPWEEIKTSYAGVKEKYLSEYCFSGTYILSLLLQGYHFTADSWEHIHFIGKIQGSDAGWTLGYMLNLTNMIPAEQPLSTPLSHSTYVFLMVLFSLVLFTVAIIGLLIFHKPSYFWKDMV
Assay: percent target occupancy on peripheral blood monocytes of dosed patients (ex vivo pharmacodynamic assay)

B1: Clone 22 (antibody, human IgG4 S228P, kappa, V domains shown)
VH: QVQLVQSGAEVKKPGSSVKVSCKASGGTFSSEGISWVRQAPGQGLEWMGSILPIFGTANYAQKFQGRVTITADESTSTAYMELSSLRSEDTAVYYCAREAGYYRYRYFDLWGRGTLVTVSS
VL: EIVMTQSPATLSVSPGERATLSCRASQSVSSNLAWYQQKPGQAPRLLIYGASTRATGIPARFSGSGSGTEFTLTISSLQSEDFAVYYCQQHALWPLTFGGGTKVEIKR
B1: binds.
